Molecular target: TRPV1 (Homo sapiens, UniProt Q8NER1)
Test: Ca2+ imaging (Fluo-4AM) in HEKVR1 cells
Format: cell-based
Conditions: capsaicin 2.5 μM with addition of TNF-α 0.1 μg/ml, 30 minutes

By UniProt entry, the sequences of proteins in these tests, tags left out.
UniProt Q8NER1, whole entry, species assumed: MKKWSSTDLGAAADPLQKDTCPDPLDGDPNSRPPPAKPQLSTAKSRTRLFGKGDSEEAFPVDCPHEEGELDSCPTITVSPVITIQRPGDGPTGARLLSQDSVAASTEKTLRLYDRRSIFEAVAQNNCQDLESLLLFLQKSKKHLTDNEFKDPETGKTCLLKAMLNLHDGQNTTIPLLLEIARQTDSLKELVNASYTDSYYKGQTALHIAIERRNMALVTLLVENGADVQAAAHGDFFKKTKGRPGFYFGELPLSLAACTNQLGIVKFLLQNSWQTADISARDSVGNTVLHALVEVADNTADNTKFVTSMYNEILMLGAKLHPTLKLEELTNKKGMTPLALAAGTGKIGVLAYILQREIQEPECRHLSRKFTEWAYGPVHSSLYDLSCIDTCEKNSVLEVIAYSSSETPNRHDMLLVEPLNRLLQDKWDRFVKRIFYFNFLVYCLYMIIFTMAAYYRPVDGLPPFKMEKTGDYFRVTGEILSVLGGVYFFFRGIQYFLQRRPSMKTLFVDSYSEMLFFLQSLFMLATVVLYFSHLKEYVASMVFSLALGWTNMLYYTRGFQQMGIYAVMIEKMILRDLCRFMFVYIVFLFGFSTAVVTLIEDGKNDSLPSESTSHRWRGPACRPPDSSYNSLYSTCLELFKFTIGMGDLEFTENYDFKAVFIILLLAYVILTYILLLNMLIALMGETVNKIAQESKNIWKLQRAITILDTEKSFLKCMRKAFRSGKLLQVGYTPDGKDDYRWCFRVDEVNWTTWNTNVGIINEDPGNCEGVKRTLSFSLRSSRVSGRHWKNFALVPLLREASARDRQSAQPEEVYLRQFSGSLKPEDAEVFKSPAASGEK

COc1cc(CNC(=O)CCCC/C=C/C(C)C)ccc1O [capsaicin, 8-methyl-N-vanillyl-trans-6-nonenamide]
increase in Ca^2+ over basal fluorescence: 3146±532%
